From paper PMC5681660, “Reduced hepatitis B and D viral entry using clinically applied drugs as novel inhibitors of the bile acid transporter NTCP” (Scientific Reports, 2017)

Target: T1, human NTCP (Homo sapiens, UniProt Q14973)
T1 sequence (Q14973 1-349): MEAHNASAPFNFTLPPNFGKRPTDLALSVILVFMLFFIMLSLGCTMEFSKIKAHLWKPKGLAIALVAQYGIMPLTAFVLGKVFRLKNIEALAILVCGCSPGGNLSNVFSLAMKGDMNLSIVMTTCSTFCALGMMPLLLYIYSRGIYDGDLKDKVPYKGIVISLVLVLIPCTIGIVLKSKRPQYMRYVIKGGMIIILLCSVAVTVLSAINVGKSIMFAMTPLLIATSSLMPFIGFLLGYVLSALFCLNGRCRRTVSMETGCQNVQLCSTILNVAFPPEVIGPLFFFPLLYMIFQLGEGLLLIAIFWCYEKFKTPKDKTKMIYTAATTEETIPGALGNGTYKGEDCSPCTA
Assay: Screening fluorescent competitive Myrcludex B-FITC binding assay (96-well, 10 µM drug)
Settings: for B-score binding assay / %NTCP binding: screening Myrcludex B-FITC binding, 10 µM drug; for %NTCP binding: Prestwick library

Row | Structure (SMILES) | B-score binding assay | other results
1 | COc1c(N2CCNC(C)C2)c(F)cc2c(=O)c(C(=O)O)cn(C3CC3)c12 (stereo not shown) [Gatifloxacin] | 1.44 | –
2 | CCCCCCC[N+](CC)(CC)CCCCc1ccc(Cl)cc1.Cc1ccc(S(=O)(=O)[O-])cc1 [Clofilium tosylate] | -1.116 | –
3 | NC(=O)c1ccc[n+]([C@@H]2O[C@H](COP(=O)([O-])OP(=O)(O)OC[C@H]3O[C@@H](n4cnc5c(N)ncnc54)[C@H](O)[C@@H]3O)[C@@H](O)[C@H]2O)c1 [Nadide] | -0.892 | –
4 | CN(C)c1nc(N(C)C)nc(N(C)C)n1 [Altretamine] | 0.599 | –
5 | CCCCCCCCCCCCCCCC[N+](C)(C)CCN(Cc1ccc(OC)cc1)c1ncccn1 [Thonzonium bromide] | -4.644 | –
6 | Cc1onc(-c2ccccc2Cl)c1C(=O)N[C@@H]1C(=O)N2[C@@H]1SC(C)(C)[C@@H]2C(=O)[O-].[Na+] [Cloxacillin sodium salt] | -2.225 | –
7 | CC(C)CC(N(C)C)C1(c2ccc(Cl)cc2)CCC1.Cl (stereo not shown) [Sibutramine HCl] | -2.027 | –
8 | CC1(C)[C@@H](OC(=O)CCC(=O)O)CC[C@]2(C)[C@H]3C(=O)C=C4[C@@H]5C[C@@](C)(C(=O)O)CC[C@]5(C)CC[C@@]4(C)[C@]3(C)CC[C@@H]12 [Carbenoxolone disodium salt] | -0.442 | –
9 | OCCN1C[C@H](O)[C@@H](O)[C@H](O)[C@H]1CO [Miglitol] | 1.428 | –
10 | C[C@]12C/C(=C/O)C(=O)C[C@@H]1CC[C@@H]1[C@@H]2CC[C@@]2(C)[C@H]1CC[C@]2(C)O [Oxymetholone] | 1.895 | remaining activity at 10 µM (0.5 h, read-out: %NTCP binding, screening Myrcludex B-FITC binding, 10 µM drug, Prestwick library): 45%
11 | NS(=O)(=O)c1cc2c(cc1Cl)NCNS2(=O)=O [Hydrochlorothiazide] | -0.565 | –
12 | CC(C)(C)NC[C@@H](O)COc1cccc2c1CCCC2=O.Cl [(+) -Levobunolol hydrochloride] | 0.328 | %NTCP binding: 93.69%
13 | CC1=C(CC(=O)O)c2cc(F)ccc2/C1=C\c1ccc([S+](C)[O-])cc1 (stereo not shown) [Sulindac] | -2.235 | –
14 | Nc1nc(NC2CC2)c2ncn([C@H]3C=C[C@@H](CO)C3)c2n1 [Abacavir Sulfate] | – | B-score binding assay (B-score): 1.567
15 | CCN(CC)C(=O)c1ccc(O)c(OC)c1 [Ethamivan] | 24.366 | –
16 | Cc1cccc(N(C)C(=S)Oc2ccc3ccccc3c2)c1 [Tolnaftate] | -1.018 | –
17 | CCN(CC)CCc1nc(-c2ccccc2)no1.O=C(O)CC(O)(CC(=O)O)C(=O)O [Oxalamine citrate salt] | -0.496 | %NTCP binding: 114.734%

Row | Structure (SMILES) | B-score binding assay | other results
18 | C[C@]12CC[C@@H]3c4ccc(OC(=O)N(CCCl)CCCl)cc4CC[C@H]3[C@@H]1CC[C@@H]2O [Estramustine] | -2.085 | –
19 | COc1c(O[C@@H]2O[C@H](CO)[C@@H](O)[C@H](O)[C@H]2O)cc2c(c1OC)-c1ccc(SC)c(=O)cc1[C@@H](NC(C)=O)CC2 [Thiocolchicoside] | -2.286 | –
20 | Cc1c(NC(C)C)c(=O)n(-c2ccccc2)n1C.Cl [Isopyrin hydrochloride] | 0.027 | –
21 | COc1ccc(-c2ccc(=N)n(CCCC(=O)O)n2)cc1 [Gabazine bromide] | -1.532 | –
22 | N=C(N)N/N=C/c1c(Cl)cccc1Cl [Guanabenz acetate] | 2.599 | –
23 | Cc1cc(=O)n(-c2ccccc2)n1C [Antipyrine] | -1.108 | –
24 | CCCC1O[C@@H]2C[C@H]3[C@@H]4CCC5=CC(=O)C=C[C@]5(C)[C@H]4[C@@H](O)C[C@]3(C)[C@]2(C(=O)CO)O1 (stereo partly shown) [Budesonide] | 1.783 | –
25 | CCC(COC(=O)c1cc(OC)c(OC)c(OC)c1)(c1ccccc1)N(C)C (stereo not shown) [Trimebutine] | -0.102 | –
26 | Nc1nc2[nH]cc(CCc3ccc(C(=O)N[C@@H](CCC(=O)O)C(=O)O)cc3)c2c(=O)[nH]1 [Pemetrexed disodium] | -0.839 | –
27 | COc1cc2nc(N3CCN(C(=O)C4CCCO4)CC3)nc(N)c2cc1OC (stereo not shown) [Terazosin hydrochloride] | -0.273 | –
28 | Oc1ccc(OCc2ccccc2)cc1 [Monobenzone] | -0.108 | –
29 | CC(=O)[C@@]12O[C@](C)(c3ccccc3)O[C@@H]1C[C@H]1[C@@H]3CCC4=CC(=O)CC[C@]4(C)[C@H]3CC[C@@]12C [Algestone acetophenide] | -0.867 | –
30 | CS(=O)(=O)O.Cc1ccc2c(c1)c1c3n2CCNC3CCC1 (stereo not shown) [Pirlindole mesylate] | -0.677 | %NTCP binding: 93.7427%
31 | C[N+]1(C)CCCC(OC(=O)C(O)(c2ccccc2)c2ccccc2)C1 (stereo not shown) [Mepenzolate bromide] | -0.876 | –
32 | CCCCN1CCCCC1C(=O)Nc1c(C)cccc1C (stereo not shown) [Bupivacaine hydrochloride] | -1.06 | –
33 | CC1CCc2c(N3CCC(O)CC3)c(F)cc3c(=O)c(C(=O)O)cn1c23 (stereo not shown) [Nadifloxacin] | – | B-score binding assay (B-score): 2.719

Where a name gives a salt, the structure may show the parent alone.
